Laboratory results: paper PMC10011731, “CLASP2 facilitates dynamic actin filament organization along the microtubule lattice” (Molecular Biology of the Cell, 2023)

Target: F-actin (actin purified from chicken breast) (chicken, UniProt P68139 1-377)
Test: co-sedimentation; high-speed cosedimentation: F-actin 0, 0.5, 1, 2.5, 5 and 10 µM with 360 nM GFP-L-TOG2-S, 37°C for 15-30 min in general actin buffer; 184,000 x g, 20 min, 26°C; fraction in pellet by SDS-PAGE densitometry, Michaelis-Menten fit; without microtubules
Conditions: both partners purified

Kd: 1100 ± 600 nM
B1: His-EGFP-L-TOG2-S (domain or fragment)
chain: SVDGNRPSSAASAFKVPAPKTSGNPANSARKPGSAGGPKVGGASKEGGAGAVDEDDFIKAFTDVPSIQIYSSRELEETLNKIREILSDDKHDWDQRANALKKIRSLLVAGAAQYDCFFQHLRLLDGALKLSAKDLRSQVVREACITVAHLSTVLGNKFDHGAEAIVPTLFNLVPNSAKVMATSGCAAIRFIIRHTHVPRLIPLITSNCTSKSVPVRRRSFEFLDLLLQEWQTHSLERHAAVLVETIKKGIHDADAEARVEARKTYMGLRNHFPGEAETLYNSLEPSYQKSLQTYLKSSGSVASLPQSDRSSSSSQESLNRPFSSKWSTANPSTVAGRVSAGSSKASSLPGSLQRSRSDIDVNAAAGAKAHHAAGQSVRSGRLGAGALNAGSYASLEDTSDKLDGTASEDGRVRAKLSAPLAGMGNAKADSRGRSRTKMVSQSQPGSRSGSPGRVLTTTALSTVSSGVQRVLVNSASAQKRSKIPRSQGCSREASPSRLSVARSSRIPRPSVSQGCSREASRESSRDTSPVRSFQPLASRHHSRSTGALYAPEVYGASGPGYGISQSS
modifications: N-terminal His-EGFP tag omitted. Exact limits are not printed here (cited: Aher et al. 2018). Start is set by convention at the linker preceding TOG2, after the isoform-specific N-terminus of the …
